Experimental findings from patent publication US20250154200A1, “CYCLIC PEPTIDE FOR CANCER IMMUNOTHERAPY” (Kansas State University Research Foundation, priority 2021, published 2025) are described below.

The chains behind the UniProt entries cited, without tags or fusion partners. Residues count along the entry.
UniProt P09793, 36-223: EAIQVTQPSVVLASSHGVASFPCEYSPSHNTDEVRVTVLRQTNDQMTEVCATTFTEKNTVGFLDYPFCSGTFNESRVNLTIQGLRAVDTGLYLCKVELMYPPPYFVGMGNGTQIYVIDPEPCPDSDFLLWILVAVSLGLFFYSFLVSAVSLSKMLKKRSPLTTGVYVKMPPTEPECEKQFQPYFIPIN

The target in the assay is CTLA4 on antigen-primed mouse CD8+ T cells (mouse) (UniProt P09793). In words: cell-based or functional assay.

Turning to cyclic peptide R10, cyc([…]), the LLC-specific cell death at 36 hrs after co-culture with AP-CD8+ T cells, R10 at 10 µM is 68.2%.
